This is an account of results in publication PMC12508063, “Chloroindazole based estrogen receptor β ligands with favorable pharmacokinetics promote functional remyelination and visual recovery” (Scientific Reports, 2025).

Protein sequences, listed by entry. Tags and fused reporters are not part of them.
UniProt P33261, whole entry: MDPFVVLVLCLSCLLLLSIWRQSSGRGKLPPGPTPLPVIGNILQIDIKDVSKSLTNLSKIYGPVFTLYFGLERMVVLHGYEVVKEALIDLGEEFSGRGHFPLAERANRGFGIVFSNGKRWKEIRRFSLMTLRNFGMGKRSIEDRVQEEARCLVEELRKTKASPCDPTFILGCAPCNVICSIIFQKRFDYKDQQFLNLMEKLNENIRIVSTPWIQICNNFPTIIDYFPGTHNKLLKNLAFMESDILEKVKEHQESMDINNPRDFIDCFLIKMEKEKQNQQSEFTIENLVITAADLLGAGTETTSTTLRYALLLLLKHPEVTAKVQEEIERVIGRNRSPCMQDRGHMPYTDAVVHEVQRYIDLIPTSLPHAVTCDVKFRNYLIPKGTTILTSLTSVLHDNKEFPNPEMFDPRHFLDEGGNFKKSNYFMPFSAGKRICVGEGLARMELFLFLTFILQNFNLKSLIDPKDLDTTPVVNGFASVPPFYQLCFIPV

In the data set the target is CYP2C19 (Homo sapiens, UniProt P33261). In words: CYP inhibition. To be noted: test compounds at 10 μM; substrate Mephenytoin.

SMILES strings stand for the structures.

As to `N[C@@H]1C[C@H]1c1ccccc1` (racemic) [Tranylcypromine], the “CYP Inhibition Percentage CYP2C19” value amounted to 83.95%.
